# Test results from patent publication US12636373B2, “Prodrugs with a tridentate self-immolative linker” (The General Hospital Corporation, priority 2018, dated 2026).
# Where a SMILES comes first, the peptide text is derived from it. [ ]: non-standard residue; d: D form. The star is where a group is joined. ξ: configuration not given here. Dolaproine = CO[C@@H]([C@@H]1CCCN1)[C@@H](C)C(=O)O; X1 = C=CCOC(=O)Nc1ccc(C(OC(=O)*)C(=O)NCC)cc1; Dil = CC[C@H](C)[C@H](NC)[C@@H](CC(=O)O)OC; X2 = C[C@@H](N*)[C@@H](O)c1ccccc1; NMeV = CN[C@H](C(=O)O)C(C)C; ξV = CC(C)C(N)C(=O)O
# Assays:
# [1] = In vitro NP prodrug release in PBS; assay type: physicochemical; settings: 72 h at 37° C. in PBS
# Protocol: Transmission electron microscopy (TEM) was performed in the Microscopy Core of the Center for Systems Biology/Program in Membrane Biology (MGH). […] Excess solution was blotted, grids were stained with phosphotungstic acid, and then blotted, dried and imaged. In vitro NP prodrug release was performed by incubating in PBS at 37° C., separating NPs using a 30 kDa molecular weight cutoff filter (Millipore Amicon) after 72 h, and measuring flow-through for drug content by absorbance (Nanodrop). NP was dissolved in DMF and also measured for drug content by absorbance. Pd-NP, Alloc2R110 and its nanoformulation, and all Pd compounds were synthesized and characterized as previously described.^5
# [2] = tested on: HT1080 fibrosarcoma cancer cells; assay: Resazurin-based cytotoxicity assay, 72 h
compound,measurement,setting,value
"C=CCOC(=O)Nc1ccc(C(OC(=O)N(C)[C@H](C(=O)NC(C(=O)N(C)[C@@H]([C@@H](C)CC)[C@@H](CC(=O)N2CCC[C@H]2[C@H](OC)[C@@H](C)C(=O)N[C@H](C)[C@@H](O)c2ccccc2)OC)C(C)C)C(C)C)C(=O)NCC)cc1 (stereo partly shown) [C16proMMAE, Alloc-SIL-C16-MMAE] (X1-[NMeV][ξV][Dil][Dolaproine]-X2)","kinetic release rate, fold slower than prodrug without C16 anchor",[1],20 fold
same,"turn-on capacity in cytotoxicity, fold greater than Alloc-DOX",[2],100 fold
same,fold change in cytotoxicity (IC50) upon Pd-NP activation,[2]; HT1080,> 10^4 fold
same,"in vitro potency, fold greater than Alloc-DOX",[2]; in the presence of Pd-NP,roughly 100 fold
